# The list is not random: actives were taken first. Their share in the collection is about 2.8%.
# PglD inh – C. jejuni PglD acetyltransferase inhibitors, primary screen, biochemical, DTNB colorimetric, single point; purified PglD enzyme, DTNB colorimetric CoA detection; hit rate 0.098% among 360,000; inhibition, % at 12.5 µM; UDP-N-acetylbacillosamine N-acetyltransferase PglD (Campylobacter jejuni); AID 602405, 2012; in the data active = inhibition above about 16%, passing the limit was not always enough; inconclusive = no clear call, values can overlap the other calls
# C2C12 statin – suppressors of statin myotoxicity in C2C12 myotubes, primary screen, cell-based, single point, plate reader; C2C12 myotubes + simvastatin, ATP luminescence, 48 h; scaled: DMSO 0, geranylgeraniol control 100; rescue of ATP level, % at 7.49 µM; hit rate 0.78% among 330,000;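 active = mean ATP rescue above about 67%, or every replicate alone reaching that limit, limit read from the data, passing the limit was not always enough; inconclusive = no clear call, values can overlap the other calls; inactive = mean under the limit and some replicate under it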;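 also: myotubes were challenged with 10 µM simvastatin during compound exposure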
# esBAF inh – Bmi1 luciferase reporter increase in mESCs, primary screen, esBAF inhibitor project, mouse ES cells, Bmi1 luciferase knock-in, single point. 24 h; 100% = twice the neutral-well signal. reporter increase, % at 12.5 µM. hit rate 2% among 350,000; in the data active = activation above about 40%; inconclusive = no clear call, values can overlap the other calls;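 also: 0% = median of the plate's neutral control wells and 100% = double that signal; a rise in the Bmi1 reporter signal indicates esBAF inhibition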
# PGC1a acetyl inh – inhibitors of PGC1a acetylation signal, primary screen, cell-based, U2OS, AlphaScreen, inhibitor mode; AID 651687, 2012; AlphaScreen anti-acetyl-lysine; with virally co-expressed GCN5 acetyltransferase; inhibition, % at 15.6 µM; hit rate 0.17% among 350,000;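 active = every replicate shows inhibition of at least 40%; inconclusive = mean inhibition at least 40% but some replicate below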;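 also: 0% = neutral control wells and 100% = positive control wells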
# UUG fidelity – modulators of start codon recognition fidelity in yeast. S. cerevisiae UUG-firefly luciferase reporter, luminescence/redox ratio. activity score, % at 18.7 µM. 0.13% of 350,000 active. AID 602363;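 active = replicate mean at a twofold rise or more, about +100% in these data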;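 also: firefly luciferase made from a UUG start codon reports start codon fidelity; reporter light over untreated wells divided by growth signal over untreated wells; some hits fall short of that in this replicate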
# E-selectin induc – E-selectin induction in HUVECs, primary screen, imaging, HUVEC, immunofluorescence imaging, single point; AID 686992, 2013; hit rate 0.37% among 260,000; normalized: neutral wells 0, TNF-alpha wells 100; P16581; activation, % at 7.58 µM;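 active = mean E-selectin-positive cell signal at least 10% of the positive control, reached in at least 60% of replicates, without over 20% cell loss; inconclusive = no rule given, readout overlaps actives, possibly toxicity-flagged; inactive = the rest, including those meeting only one limit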
#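 Assay system: HUVEC, human umbilical vein endothelial cells / Amount: 3,000 HUVEC/well / Controls: TNF-alpha positive control, DMSO neutral control / Compound dosing: single concentration / Medium: EGM-2 over gelatin coat / Evaluation: percent E-selectin-positive cells / Signal: immunofluorescence imaging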
# * = called active by the depositor; u = inconclusive; x = no result given.
# Codes – A = PglD inh; B = C2C12 statin; C = esBAF inh; D = PGC1a acetyl inh; E = UUG fidelity; F = E-selectin induc
> C#CCOc1c(Br)cc(/C=N\NC(=O)CN2CCOCC2)cc1OCC
  A: 3; B: 103*; C: -3; D: -2; E: -9; F: x

> CC(C)NC(=O)N(C)C[C@H]1Oc2ncc(-c3ccccc3F)cc2C(=O)N([C@@H](C)CO)C[C@H]1C
  A: 4; B: 0; C: 9; D: 11; E: 1; F: 0

> CO[C@H]1CN(C)C(=O)c2cc(NC(=O)c3ccc4c(c3)OCO4)ccc2OC[C@H](C)N(CC2CC2)C[C@@H]1C
  A: 0; B: 11; C: 1; D: -6; E: x; F: 0

> COc1ccc(C=O)cc1COc1ccc2c(c1)OCO2
  A: 4; B: 17; C: x; D: 8; E: 1; F: x

> COc1ccc(C=O)cc1COc1ccc([N+](=O)[O-])c(C)c1
  A: 8; B: -9; C: -4; D: -3; E: -8; F: 369*

> Cc1ccc(NC(=O)Nc2cccc(F)c2)nc1
  A: 1; B: -12; C: 53*; D: 12; E: -3; F: x

> COc1ccc(NC(=O)c2cc(F)c(F)cc2Cl)cc1Cl
  A: 1; B: 0; C: 52*; D: -1; E: -9; F: -2

> Cc1ccc(NC(=O)Nc2ccc3c(c2)OCO3)nc1
  A: x; B: 5; C: 48*; D: -3; E: x; F: x

> O=C(Nc1cccc(F)c1)Nc1ccc(Cl)cn1
  A: -6; B: 0; C: 32; D: -21; E: -28; F: 0

> COc1ccc(C(=O)O)c(OC)n1
  A: 4; B: -5; C: -5; D: 3; E: -5; F: -1

> COc1ccc(C(=O)Nc2ccc(Cl)c(Cl)c2)c(OC)n1
  A: 15; B: x; C: 66*; D: -8; E: -14; F: x

> CCCNC(=O)NC[C@@H]1[C@@H](c2ccc(C3=CCCC3)cc2)[C@@H](CO)N1C(C)=O
  A: 0; B: 12; C: 3; D: -16; E: -9; F: 0

> CCCNC(=O)C[C@@H]1CC[C@H]2[C@@H](COc3ccc(NC(=O)Nc4ccccc4F)cc3C(=O)N2C)O1
  A: 0; B: 9; C: 2; D: -1; E: 24; F: 0

> COCC(=O)N[C@@H]1C=C[C@@H](CC(=O)N2CCCCC2)O[C@H]1CO
  A: 5; B: 5; C: -1; D: 4; E: x; F: x

> C[C@@H]1CN([C@H](C)CO)C(=O)c2cc(-c3ccc(C#N)cc3)cnc2O[C@@H]1CN(C)C(=O)c1cccnc1
  A: 0; B: -10; C: -7; D: 5; E: 9; F: 0

# (more compounds)
# Codes – A = PglD inh; B = C2C12 statin; C = esBAF inh; D = PGC1a acetyl inh; E = UUG fidelity; F = E-selectin induc
> C[C@H]1CN([C@@H](C)CO)C(=O)CCCn2cc(nn2)CO[C@@H]1CN(C)Cc1cccc(C(=O)O)c1
  A: 0; B: -22; C: -2; D: 0; E: 4; F: 0

> Cc1ccc(NC(=O)Nc2ccc(Cl)cn2)cc1
  A: x; B: x; C: x; D: x; E: x; F: 1

> Cc1cc(NS(=O)(=O)c2ccc(NC(=O)Nc3ccc4c(c3)OCO4)cc2)no1
  A: x; B: -9; C: 42*; D: 4; E: x; F: x

> Cc1cccc(NC(=O)Nc2cccc(C#N)c2)n1
  A: 1; B: 0; C: 50*; D: 11; E: -16; F: 0

> Cc1ccc(NC(=O)Nc2ccc(Cl)c(Cl)c2)nc1
  A: -5; B: 1; C: 60*; D: -3; E: -31; F: 1

> Cc1cc(NS(=O)(=O)c2ccc(NC(=O)COc3c(C)cc(Br)cc3C)cc2)no1
  A: -6; B: -4; C: -7; D: 85*; E: -8; F: x

> C[C@@H]1CN([C@@H](C)CO)C(=O)c2ccccc2-c2ccccc2CO[C@@H]1CN(C)C(=O)Nc1ccc2c(c1)OCO2
  A: -3; B: -3; C: 2; D: -8; E: x; F: -4

> CN1CCN(C(=O)c2cc3c(c(-c4cccc(C#CCC5CCCC5)c4)n2)[C@@H](CCO)N(S(=O)C(C)(C)C)C3)CC1 (some centres not stated)
  A: 2; B: x; C: 11; D: 8; E: x; F: x

> Cc1ccc(NC(=O)c2cc(F)c(F)cc2Cl)nc1
  A: 0; B: u; C: 44*; D: 4; E: -28; F: 0

> Cc1cccc(NC(=O)Nc2cccc(F)c2)n1
  A: 0; B: -15; C: 68*; D: -5; E: -13; F: x

> COc1ccc(CN(C)C[C@H]2Oc3c(NS(=O)(=O)c4ccc(OC)cc4)cccc3C(=O)N([C@@H](C)CO)C[C@@H]2C)cc1
  A: 6; B: 21; C: -1; D: 24; E: 7; F: -1

> COc1ccccc1CC(=O)Nc1ccc(OC)c(OC)c1
  A: 4; B: 8; C: 1; D: x; E: -4; F: x

> COc1ccccc1CC(=O)Nc1ccc2c(c1)OC1(CCCC1)O2
  A: -3; B: 10; C: 52*; D: -31; E: 3; F: 0

> O=C1NNC(=O)C1c1ccccc1
  A: -1; B: 23; C: -1; D: 3; E: -12; F: 1

> O=C1C(c2ccccc2)C(c2ccccc2)NC(c2ccccc2)C1c1ccccc1 (configuration not stated)
  A: 0; B: 111*; C: -3; D: -55; E: -8; F: x

# With a hit mark in PGC1a acetyl inh (from the list above):
compound,PglD inh,esBAF inh,PGC1a acetyl inh,UUG fidelity
Cc1cc(NS(=O)(=O)c2ccc(NC(=O)COc3c(C)cc(Br)cc3C)cc2)no1,-6,-7,85*,-8

# Additional compounds
# Codes – A = PglD inh; B = C2C12 statin; C = esBAF inh; D = PGC1a acetyl inh; E = UUG fidelity; F = E-selectin induc
> Cc1ccc(-c2ccc3c(c2)O[C@H](CN(C)Cc2ccncc2)[C@@H](C)CN([C@H](C)CO)S3(=O)=O)cc1
  A: -6; B: -117; C: -34; D: -18; E: 0; F: 1

> CCCS(=O)(=O)N1CCCC(C(=O)NCCN2CCC(Cc3ccccc3)CC2)C1 (configuration not stated)
  A: 4; B: 117*; C: 8; D: -3; E: -5; F: x

> Fc1ccccc1/C=N/n1cc(-c2ccccc2)[nH]c1=S
  A: 0; B: 8; C: 54*; D: -10; E: -19; F: 4

> Cc1ccc(C)c(/C=N/n2cc(-c3ccccc3)[nH]c2=S)c1
  A: x; B: x; C: x; D: x; E: x; F: 0

> Cc1[nH]c2ccccc2c(=O)c1CN(C)Cc1ccccc1
  A: 3; B: x; C: 57*; D: 0; E: -10; F: x

> O=C1CN(S(=O)(=O)Cc2ccccc2)C[C@H]2[C@H](c3ccc(C#Cc4ccc(F)cc4)cc3)[C@H](CO)N12
  A: x; B: x; C: x; D: 2; E: x; F: x

> COc1ccc(-c2noc(N3CCCC(C(=O)Nc4ccc(C(C)=O)cc4)C3)n2)cc1 (configuration not stated)
  A: 2; B: 1; C: 48*; D: -19; E: -6; F: x

> COc1ccc(NC(=O)C2CCN(c3nc(-c4ccc(OC)cc4)no3)CC2)cc1
  A: -6; B: -17; C: -23; D: -6; E: -11; F: 0

> CO[C@H]1CN(C)C(=O)c2cc(NS(=O)(=O)c3ccc(Cl)cc3)ccc2OC[C@@H](C)N(C)C[C@@H]1C
  A: 0; B: 2; C: 1; D: -17; E: 18; F: 0

> Cc1ccc(C2CCN(C(=O)Nc3ccc(F)cc3)C2)cc1 (configuration not stated)
  A: 4; B: -21; C: 63*; D: -16; E: -14; F: 3

> Cc1nc2cc(NC(=O)N3CCC(c4ccccc4)C3)ccc2n1C (configuration not stated)
  A: 0; B: -15; C: 54*; D: 2; E: -16; F: x

> O=C(Nc1ccccc1)N1CC=C(c2ccc(F)cc2)CC1
  A: 7; B: 15; C: 61*; D: -2; E: -21; F: x

> C[C@H](CO)N1C[C@H](C)[C@H](CN(C)CC2CC2)Oc2ncc(-c3ccc(F)cc3)cc2C1=O
  A: -1; B: 20; C: -8; D: 8; E: 3; F: -1

> CO[C@@H]1CN(C)C(=O)c2ccc(NS(C)(=O)=O)cc2OC[C@H](C)N(C(=O)CC2CC2)C[C@H]1C
  A: -6; B: 6; C: 6; D: -5; E: -13; F: 0

> N#C/C(=C\c1ccc[nH]1)C(=O)Nc1ccccc1[N+](=O)[O-]
  A: 1; B: 2; C: 63*; D: 2; E: 0; F: -1

# Record cards, as listed above. Screens in order: PglD inh	C2C12 statin	esBAF inh	PGC1a acetyl inh	UUG fidelity	E-selectin induc
# N#C/C(=C\c1ccc[nH]1)C(=O)Nc1ccccc1[N+](=O)[O-] across the screens: 1	2	63*	2	0	-1
# Cc1nc2cc(NC(=O)N3CCC(c4ccccc4)C3)ccc2n1C (configuration not stated) across the screens: 0	-15	54*	2	-16	x
